This passage reports Ki results from patent US12246076B2, “Radiolabeled compounds for in vivo imaging of gastrin-releasing peptide receptor (GRPR) and treatment of GRPR-related disorders” (PROVINCIAL HEALTH SERVICES AUTHORITY, priority 2022, dated 2025).

Protein sequences, listed by entry. Tags and fused reporters are not part of them.
UniProt P30550, whole entry: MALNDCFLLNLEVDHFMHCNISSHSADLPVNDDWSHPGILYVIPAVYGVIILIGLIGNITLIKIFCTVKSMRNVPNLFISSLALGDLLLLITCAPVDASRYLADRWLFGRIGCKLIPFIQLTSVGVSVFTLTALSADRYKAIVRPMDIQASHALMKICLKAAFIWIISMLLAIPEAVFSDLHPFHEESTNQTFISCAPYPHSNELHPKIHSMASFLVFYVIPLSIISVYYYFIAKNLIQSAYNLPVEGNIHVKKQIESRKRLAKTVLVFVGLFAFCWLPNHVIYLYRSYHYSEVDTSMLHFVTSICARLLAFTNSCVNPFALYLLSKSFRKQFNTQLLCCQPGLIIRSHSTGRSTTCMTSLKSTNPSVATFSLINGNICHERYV

Molecules are shown by their SMILES.

This experiment has as its target GRPR (Homo sapiens, UniProt P30550). As to the kind of experiment: In vitro competition binding assay, displacement of [^125I-Tyr^4]bombesin on GRPR-expressing PC-3 cells. The conditions noted are these: read-out: Binding affinities Ki Mean, n = 2-3.

For `CC(C)C[C@@H](CN1CSC[C@H]1C(N)=O)NC(=O)[C@H](Cc1c[nH]cn1)NC(=O)CNC(=O)[C@@H](NC(=O)[C@H](C)NC(=O)[C@](C)(Cc1c[nH]c2ccccc12)NC(=O)[C@H](CCC(N)=O)NC(=O)[C@@H](Cc1ccccc1)NC(=O)CN1CCC(NC(=O)CN2CCN(CC(=O)O)CCN(CC(=O)O)CCN(CC(=O)O)CC2)CC1)C(C)(C)C`, the Ki (commonly a dissociation constant, usually derived from enzyme kinetics or from competition with a known ligand) was determined as 6.94 nM.

On to `CC(C)C[C@@H](CN1CSC[C@H]1C(N)=O)NC(=O)[C@H](Cc1c[nH]cn1)NC(=O)CN(C)C(=O)[C@@H](NC(=O)[C@H](C)NC(=O)[C@H](Cc1c[nH]c2ccccc12)NC(=O)[C@H](CCC(N)=O)NC(=O)[C@@H](Cc1ccccc1)NC(=O)CN1CCC(NC(=O)CN2CCN(CC(=O)O)CCN(CC(=O)O)CCN(CC(=O)O)CC2)CC1)C(C)(C)C`, for which the Ki turned out to be 11 nM.
